The assay deals with A2AR-CFP (UniProt P29274). Description: FRET or BRET; acceptor photobleaching FRET in transfected HEK293 cells fixed with 4% PFA; CFP donor, YFP acceptor; confocal microscope; in Fig 5 cells treated with Istradefylline (30 nM, 0-60 min; or 10-100 nM, 30 min) or CGS 21680 HCl.

As for “YFP-PS1 (from UniProt P49768 1-467) (natural protein)”, the FRET efficiency was determined as 0.17.

These data come from paper PMC5106031.
